{"source": "patent US4599325A", "about": "“Substituted tyrosyl alanine dipeptide amides” (G. D. Searle & Co., priority 1985, dated 1986)", "molecular_target": "opiate receptors", "test": "Opiate binding assay (displacement of 3H-Naloxone)", "settings": "Table 1, rat brain membranes", "description": "The test compounds were evaluated for their ability to displace the binding of ^3 H-Naloxone to opiate receptors isolate from rat brain. Male rats [COBS CD(SD)BR] obtained from Charles River Laboratories (Portage, MI) were sacrificed by cervical dislocation. A purified homogenate of receptor membranes was prepared from the brains according to the method described by Chang and Cuatrecasas. (K.-J. Chang and P. Cuatrecases. Multiple Opiate Receptors: Enkephalins And Morphine Bind To Receptors Of Different Specificity. J. Biol. Chem. 254, 2610-2618 (1979).) The brains were homogenized in 10 volumes of 0.32M sucrose and centrifuged twice at 6,000×g for 15 minutes. Following centrifugation of the supernatants at 40,000×g for 30 minutes, the pellets were allowed to swell, then centrifuged at 6,000 and 40,000×g. This process was repeated. […]\nThe binding of the test compounds to the receptor membrane preparation was measured using a modification of the method of Pert and Snyder. […]\nSamples were incubated at 25° C. for 60 min., cooled on ice 5 min. and subsequently filtered over Whatman GF/C glass fiber filters with 2.4 ml washes of cold buffer. […] After solubilization, the pH was adjusted with 0.1 ml of glacial acetic acid, 10 ml of PCS was added and the samples were counted in a Nuclear Chicago Mark II liquid scintillation counter. […]"}
{"substance": "2,6-dimethyltyrosyl-N-(4-phenylbutyl)-D-alaninamide, hydrochloride [Example 43]", "values": [{"measurement": "IC50", "result": 130, "unit": "nM"}]}
